Assays:
[1] = molecular target: PARP1 (Homo sapiens, UniProt P09874); assay: Colorimetric PARP1 activity assay (Trevigen), IC50 determination; type: biochemical; conditions: Example 2 and 3 text; isolated enzyme
[2] = test system: MDA-MB-231 and MDA-MB-436 cells; assay: Competitive cellular uptake of 18F-AZD2281 (gamma-counting)
[3] = PET-CT organ distribution in non-tumor bearing Nu/Nu mice
[4] = test system: MDA-MB-436 tumors; assay: PET-CT imaging of MDA-MB-436 tumor-bearing mice, with and without AZD2281; conditions: tumor-bearing mouse, 30 mCi
[5] = test system: A2780 tumors; assay: Non-invasive monitoring of treatment response in tumor-bearing Nu/Nu mice (SUV); conditions: 0.5-1.0 mg AZD2281 ip or iv before imaging

Chains of the proteins cited; added tags and fusions are not shown.
UniProt P09874, whole entry: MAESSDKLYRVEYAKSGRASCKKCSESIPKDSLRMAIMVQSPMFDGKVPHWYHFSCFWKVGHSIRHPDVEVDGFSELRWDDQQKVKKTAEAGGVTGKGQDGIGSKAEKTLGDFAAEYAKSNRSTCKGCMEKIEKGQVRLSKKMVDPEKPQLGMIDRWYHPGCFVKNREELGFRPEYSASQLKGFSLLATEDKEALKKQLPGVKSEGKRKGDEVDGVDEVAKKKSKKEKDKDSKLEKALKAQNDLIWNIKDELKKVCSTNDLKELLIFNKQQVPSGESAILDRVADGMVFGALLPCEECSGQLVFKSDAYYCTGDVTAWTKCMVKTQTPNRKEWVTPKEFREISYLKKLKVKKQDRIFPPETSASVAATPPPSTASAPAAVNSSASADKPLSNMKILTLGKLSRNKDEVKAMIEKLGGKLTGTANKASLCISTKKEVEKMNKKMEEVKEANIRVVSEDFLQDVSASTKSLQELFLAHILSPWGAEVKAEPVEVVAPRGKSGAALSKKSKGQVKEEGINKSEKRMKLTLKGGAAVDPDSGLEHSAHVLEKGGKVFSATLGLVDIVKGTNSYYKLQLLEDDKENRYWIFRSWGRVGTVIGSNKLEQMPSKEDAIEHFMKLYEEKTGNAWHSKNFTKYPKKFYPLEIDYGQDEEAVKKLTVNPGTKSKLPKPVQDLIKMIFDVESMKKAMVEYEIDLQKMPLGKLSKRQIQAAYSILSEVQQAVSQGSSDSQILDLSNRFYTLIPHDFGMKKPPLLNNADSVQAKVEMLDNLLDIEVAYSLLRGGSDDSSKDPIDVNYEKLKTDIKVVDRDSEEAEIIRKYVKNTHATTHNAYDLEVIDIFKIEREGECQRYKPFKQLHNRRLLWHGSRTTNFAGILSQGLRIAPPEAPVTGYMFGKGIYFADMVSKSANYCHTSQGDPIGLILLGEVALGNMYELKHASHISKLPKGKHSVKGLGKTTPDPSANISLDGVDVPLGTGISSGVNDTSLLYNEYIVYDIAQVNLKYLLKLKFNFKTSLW

| IC50 [1] [nM] | t1/2 in bloodstream ([3]; PET) [min] | Structure (SMILES) | cell permeability ([2]; 5 μCi, 20 minutes incubation) | cellular uptake upon addition of excess nonradioactive AZD2281 ([2]; AZD2281 10 μM to 0.01 nM) | cellular uptake, comparison of cell lines ([2]; MDA-MB-231 (low PARP1) versus MDA-MB-436 (high PARP1)) | initial localization of the probe ([3]; PET at 10, 30, 50 minutes, hepatobiliary excretion) | uptake in the tumors [4] | tumor signal after injection of Olaparib [5] |
| --- | --- | --- | --- | --- | --- | --- | --- | --- |
| 17.9 | 6 | O=C(CCCC(=O)N1CCN(C(=O)c2cc(Cc3n[nH]c(=O)c4ccccc34)ccc2F)CC1)NCc1ccc(-c2nncc3c2CCC(OCC[18F])CCC3)cc1 (stereo not drawn) | cell-permeable | inhibitable | lower for MDA-MB-231 cells than for MDA-MB-436 cells | mainly in liver, gall bladder, and intestines | clearly visible | drop |
| 8.4 |  | O=C(CCCC(=O)N1CCN(C(=O)c2cc(Cc3n[nH]c(=O)c4ccccc34)ccc2F)CC1)NCc1ccc(-c2nncnn2)cc1 |  |  |  |  |  |  |

Reference: US9649394B2, “Compositions and methods for in vivo imaging” (The General Hospital Corporation, priority 2010, dated 2017)
